This is a selection; strong and weak results do not stand in their true shares. Results with a measured potency or affinity are listed apart. Calls of active or inactive are those of the source.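 How the source made its calls: active means every replicate test run called active, with the signal falling and half-maximal concentration within twice the top valid dose; inconclusive means the replicate test runs disagree in their calls; inactive means every test run inactive, including effects in the opposite direction.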
Assay: reduced cellular PGC1a acetyl-lysine signal – cell-based, cherry-picked samples, dose response (AID 720514);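 further: 0% = neutral control wells and -100% = positive control wells; actives lower the acetylation signal so they count as inhibitors of PGC1a acetylation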
Conditions: U2OS PGC1a acetylation, AlphaLISA, overnight; at 19.5 µM (top of the series) unless noted

SMILES | activity change, negative = inhibition
O=c1[nH]c2ccccc2n1C1CCN(C(c2ccccc2OC(F)(F)F)c2nnnn2C2CCCC2)CC1 (configuration not stated) | inactive: 68.9% [at 10 µM]
O=c1[nH]c2ccccc2n1C1CCN(C(c2ccccc2OC(F)(F)F)c2nnnn2C2CCCCC2)CC1 (configuration not stated) | inactive: 46%

Source: PubChem BioAssay AID720514 (Broad Institute, 2013)
